# Antibody variant affinities, Ab-91 heavy chain, assay 2

All variants were tested on one target, the spike HR2 peptide PDVDLGDISGINAS (SARS-CoV-2).

Parent scFv Ab-91: VL joined to VH by a (GGGGS)3 linker. Changes lie in the heavy chain CDRs alone.
VL: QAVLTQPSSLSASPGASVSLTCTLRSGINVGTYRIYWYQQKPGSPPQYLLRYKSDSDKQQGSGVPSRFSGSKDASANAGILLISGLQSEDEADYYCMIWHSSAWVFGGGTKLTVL
VH: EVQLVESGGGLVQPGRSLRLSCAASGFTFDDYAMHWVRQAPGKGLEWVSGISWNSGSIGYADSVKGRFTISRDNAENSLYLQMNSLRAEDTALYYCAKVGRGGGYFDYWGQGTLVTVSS

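The parent was found by panning a naive human phage display library on the peptide. Variants in AAYL51 differ from the parent at up to three CDR positions; double and triple changes were sampled at random. The assay is AlphaSeq: two haploid yeast populations carry antibody and antigen on their surface. Binding brings cells together so that they mate, and sequencing counts the barcode pairs among the diploids. Read counts were normalised to the haploid input and turned into Kd by a linear fit to BCL2-family pairs of known affinity, for each replicate. Mating was done three times.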

Variants are written as CDR1, CDR2 and CDR3 of the heavy chain (limits as in the source). Parent: GFTFDDYAMH, GISWNSGSIGYADSVK, VGRGGGYFDY. Numbers give log10(Kd / nM), so 0 is 1 nM and 3 is 1 µM. Smaller is tighter. Replicates are averaged; those with no signal do not enter the mean. "ND" means that the variant was in the library but no mating with the target was seen in that replicate; the authors take this as a sign of poor binding, and no number exists.

{"CDR-H1": "GFRFDDYAMH", "CDR-H2": "GLSWNSGSIGMADSVK", "CDR-H3": "VGRGGGYFDY", "log10 Kd, replicates": "2.91 / 4.42 / ND", "log10 Kd (nM), mean": "3.66", "signal with controls": "1/9 (4.02)"}
{"CDR-H1": "GPTFDDYAMH", "CDR-H2": "GIQWNSGSIGYADSVK", "CDR-H3": "VGRGGGYFLY", "log10 Kd, replicates": "ND / ND / ND", "log10 Kd (nM), mean": "ND", "signal with controls": "2/9 (3.66)"}
{"CDR-H1": "GFTFDHAAMH", "CDR-H2": "GISWNSGSIGYADSVK", "CDR-H3": "VGRGGCYFDY", "log10 Kd, replicates": "1.76 / 1.69 / 1.15", "log10 Kd (nM), mean": "1.53", "signal with controls": "7/9 (4.51)"}
{"CDR-H1": "GFTFDVYAMH", "CDR-H2": "GYSWNSGSIGYADSVK", "CDR-H3": "DGRGGGYFDY", "log10 Kd, replicates": "ND / ND / ND", "log10 Kd (nM), mean": "ND", "signal with controls": "1/9 (4.46)"}
{"CDR-H1": "GFTNDIYAMH", "CDR-H2": "GISWNSGSIGYADSVK", "CDR-H3": "VGRGDGYFDY", "log10 Kd, replicates": "ND / ND / ND", "log10 Kd (nM), mean": "ND", "signal with controls": "2/9 (3.89)"}
{"CDR-H1": "GFTFDDYAMH", "CDR-H2": "GISWNSGSTGYADSVK", "CDR-H3": "VRREGGYFDY", "log10 Kd, replicates": "3.78 / ND / ND", "log10 Kd (nM), mean": "3.78", "signal with controls": "1/9 (4.76)"}
{"CDR-H1": "GFTFDDYAMH", "CDR-H2": "GISWNSGSSGYADSVK", "CDR-H3": "VGCGTGYFDY", "log10 Kd, replicates": "1.38 / 1.44 / 0.97", "log10 Kd (nM), mean": "1.26", "signal with controls": "5/9 (5.53)"}
{"CDR-H1": "GFTFDDYAMH", "CDR-H2": "SISWNSVSIGYADMVK", "CDR-H3": "VGRGGGYFDY", "log10 Kd, replicates": "ND / ND / 3.95", "log10 Kd (nM), mean": "3.95", "signal with controls": "1/9 (3.85)"}
{"CDR-H1": "GFTSDDYAMH", "CDR-H2": "GISWNAGSIGYADSVK", "CDR-H3": "VGRGGGHFDY", "log10 Kd, replicates": "4.77 / ND / ND", "log10 Kd (nM), mean": "4.77", "signal with controls": "4/9 (4.31)"}
{"CDR-H1": "GFTFDDYAMH", "CDR-H2": "GDSWNSGRRGYADSVK", "CDR-H3": "VGRGGGYFDY", "log10 Kd, replicates": "5.52 / ND / 3.85", "log10 Kd (nM), mean": "4.69", "signal with controls": "2/9 (4.63)"}
{"CDR-H1": "DFTFDDYAMH", "CDR-H2": "GISWNSGSIGYADSVK", "CDR-H3": "VGRGGEYFDY", "log10 Kd, replicates": "4.63 / 5.51 / 5.89", "log10 Kd (nM), mean": "5.34", "signal with controls": "7/9 (4.87)"}
{"CDR-H1": "GFTFDDYAMH", "CDR-H2": "GISWNSGSIGYTDSVK", "CDR-H3": "VGRGCGYFDY", "log10 Kd, replicates": "1.48 / 1.71 / 1.42", "log10 Kd (nM), mean": "1.54", "signal with controls": "0/9"}
{"CDR-H1": "GFTFCDYAMH", "CDR-H2": "GSSWNSGSIGYWDSVK", "CDR-H3": "VGRGGGYFDY", "log10 Kd, replicates": "3.24 / ND / ND", "log10 Kd (nM), mean": "3.24", "signal with controls": "1/9 (3.94)"}
{"CDR-H1": "GFTFDDYAMH", "CDR-H2": "GISWNSGSIGYMDSAK", "CDR-H3": "VGRGGEYFDY", "log10 Kd, replicates": "2.69 / 2.54 / 2.52", "log10 Kd (nM), mean": "2.59", "signal with controls": "4/9 (4.34)"}
{"CDR-H1": "GFTFDDYAMH", "CDR-H2": "GISWWSGSIGYADSVE", "CDR-H3": "VGRGGGQFDY", "log10 Kd, replicates": "3.84 / ND / ND", "log10 Kd (nM), mean": "3.84", "signal with controls": "0/9"}
{"CDR-H1": "GFTADDYAMH", "CDR-H2": "GISWNSGSIGYADSVK", "CDR-H3": "VGRGGESFDY", "log10 Kd, replicates": "ND / 5.31 / ND", "log10 Kd (nM), mean": "5.31", "signal with controls": "2/9 (4.26)"}
{"CDR-H1": "GKTFDDYAMH", "CDR-H2": "FISWNSGSIGYADSVK", "CDR-H3": "VGRGGGYFDY", "log10 Kd, replicates": "ND / ND / ND", "log10 Kd (nM), mean": "ND", "signal with controls": "0/9"}
{"CDR-H1": "GFTFDDYAMH", "CDR-H2": "GISWNSGSIGYAYSVD", "CDR-H3": "VMRGGGYFDY", "log10 Kd, replicates": "ND / ND / ND", "log10 Kd (nM), mean": "ND", "signal with controls": "0/9"}
{"CDR-H1": "GSTFMDYAMH", "CDR-H2": "GISWNSGSIGYADSVK", "CDR-H3": "VGRGGGYFDY", "log10 Kd, replicates": "ND / ND / ND", "log10 Kd (nM), mean": "ND", "signal with controls": "0/9"}
{"CDR-H1": "GFTFDDYAMR", "CDR-H2": "GISWNSGPIGYADSVK", "CDR-H3": "VGRGGGNFDY", "log10 Kd, replicates": "ND / 3.74 / ND", "log10 Kd (nM), mean": "3.74", "signal with controls": "2/9 (3.54)"}
{"CDR-H1": "GFTFDDYAMH", "CDR-H2": "GISFNSGSGGYADQVK", "CDR-H3": "VGRGGGYFDY", "log10 Kd, replicates": "ND / ND / ND", "log10 Kd (nM), mean": "ND", "signal with controls": "0/9"}
{"CDR-H1": "GFTFDDYAMH", "CDR-H2": "GISWNSGSITYADSVK", "CDR-H3": "HGCGGGYFDY", "log10 Kd, replicates": "4.89 / 6.50 / 5.41", "log10 Kd (nM), mean": "5.60", "signal with controls": "3/9 (5.13)"}
{"CDR-H1": "GFTFDDYAMC", "CDR-H2": "GISWNSGRIGYADSVK", "CDR-H3": "VGRQGGYFDY", "log10 Kd, replicates": "ND / ND / ND", "log10 Kd (nM), mean": "ND", "signal with controls": "2/9 (4.21)"}
{"CDR-H1": "GFTFDDYAMT", "CDR-H2": "GIQWNSGSIGYADSVK", "CDR-H3": "VGRGGGYFDY", "log10 Kd, replicates": "ND / ND / ND", "log10 Kd (nM), mean": "ND", "signal with controls": "5/9 (4.59)"}
{"CDR-H1": "GFTHDDYAMH", "CDR-H2": "GISWNSGSIGFADSVK", "CDR-H3": "VGRGGGYFDY", "log10 Kd, replicates": "ND / 3.92 / ND", "log10 Kd (nM), mean": "3.92", "signal with controls": "0/9"}
{"CDR-H1": "GFTFDDYAMD", "CDR-H2": "GISLNWGSIGYADSVK", "CDR-H3": "VGRGGGYFDY", "log10 Kd, replicates": "ND / ND / ND", "log10 Kd (nM), mean": "ND", "signal with controls": "0/9"}
{"CDR-H1": "GFTFDDYAMH", "CDR-H2": "GISWNSGSAGYADSVK", "CDR-H3": "VGMGGGYYDY", "log10 Kd, replicates": "ND / ND / ND", "log10 Kd (nM), mean": "ND", "signal with controls": "1/9 (2.61)"}
{"CDR-H1": "GFTFDHYAMR", "CDR-H2": "GISWNSGSILYADSVK", "CDR-H3": "VGRGGGYFDY", "log10 Kd, replicates": "ND / 4.51 / ND", "log10 Kd (nM), mean": "4.51", "signal with controls": "4/9 (4.38)"}
{"CDR-H1": "VFTFDDYAMH", "CDR-H2": "GISWNSGSIGYVDHVK", "CDR-H3": "VGRGGGYFDY", "log10 Kd, replicates": "ND / ND / ND", "log10 Kd (nM), mean": "ND", "signal with controls": "4/9 (3.94)"}

For reference, 3 entries of the list once more:

CDR-H1	CDR-H2	CDR-H3	log10 Kd, replicates	log10 Kd (nM), mean	signal with controls
GFTFDHAAMH	GISWNSGSIGYADSVK	VGRGGCYFDY	1.76 / 1.69 / 1.15	1.53	7/9 (4.51)
GSTFMDYAMH	GISWNSGSIGYADSVK	VGRGGGYFDY	ND / ND / ND	ND	0/9
GFTFDDYAMH	GISFNSGSGGYADQVK	VGRGGGYFDY	ND / ND / ND	ND	0/9

Parent in this assay: reference entry 1.86, copy in this library 0.88. Background: pairings of library AAYL51 with three empty control strains gave a value in 21% of cases (median 4.54, 5th percentile 3.26). Values in that range, when seen in few replicates, are hard to tell from nonspecific mating. Also given: how often the same scFv was detected with the empty control strains, with their mean in brackets.

The measurements come from Engelhart et al. 2022 (doi:10.1038/s41597-022-01779-4) through the FLAb antibody collection.